Results: patent US7445764B1, “Carrier-drug conjugate” (priority 1999, dated 2008)

Chains of the proteins cited; added tags and fusions are not shown. Residues count along the entry.
UniProt P14780, 107-707 limits assumed: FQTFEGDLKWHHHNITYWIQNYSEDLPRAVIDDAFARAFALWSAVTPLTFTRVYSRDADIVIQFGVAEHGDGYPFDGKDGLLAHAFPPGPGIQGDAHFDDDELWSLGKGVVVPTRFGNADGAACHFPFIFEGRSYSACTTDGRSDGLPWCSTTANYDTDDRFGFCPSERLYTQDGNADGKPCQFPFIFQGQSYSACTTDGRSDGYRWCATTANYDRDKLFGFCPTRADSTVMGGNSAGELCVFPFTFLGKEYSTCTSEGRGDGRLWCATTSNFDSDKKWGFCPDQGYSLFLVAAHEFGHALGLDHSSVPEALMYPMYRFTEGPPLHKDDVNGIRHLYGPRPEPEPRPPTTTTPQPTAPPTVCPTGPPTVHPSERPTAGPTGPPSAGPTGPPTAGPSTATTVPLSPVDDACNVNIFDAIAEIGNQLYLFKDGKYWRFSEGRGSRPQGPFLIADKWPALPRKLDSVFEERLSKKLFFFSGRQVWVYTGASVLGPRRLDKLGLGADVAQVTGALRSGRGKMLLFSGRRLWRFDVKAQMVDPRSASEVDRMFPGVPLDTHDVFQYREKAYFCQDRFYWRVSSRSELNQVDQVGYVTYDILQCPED

Biological target: T1, matrix metalloprotease MMP 9 (Homo sapiens, UniProt P14780)
T1 construct: purchased Calbiochem, Germany
Experiment: Cleavage of the conjugate by activated MMP 9, HPLC gel chromatography
Format: biochemical
Conditions: 200 μL of 100 μM conjugate, 30 minutes at 37° C., trypsine/aprotinine-activated MMP 9 (2 mU); detection at 495 nm
Procedure: The absorption at 495 nm is also plotted versus the retention time in min. (A) Chromatogram of the conjugate HSA-Cys^34-2 before incubation with MMP 9 (t=0). (B) Chromatogram of the conjugate HSA-Cys^34-2 after incubation with MMP 9 for 30 min (t=30 min) and also showing a peak for fragment DOXO-Gln-Gly-Ala-Ile residues 1-4 of SEQ ID No. 9.
is recognized by the matrix metalloprotease MMP 9 and cleaved between isoleucine and glycine. This was shown by the following experiment: 200 μL of a 100 μM solution of HSA-Cys^34-2 was incubated for 30 minutes at 37° C. with trypsine/aprotinine-activated MMP 9 (2 mU, from Calbiochem, Germany).

HSA-Cys^34-2
Liberation of DOXO-Gln-Gly-Ala-Ile by cleavage with MMP 9: liberation of DOXO-Gln-Gly-Ala-Ile due to cleavage with MMP 9 was confirmed
